Data as given in PubChem BioAssay AID1768 (National Center for Advancing Translational Sciences (NCATS), 2009).
Hit rate of the full screen: of about 270,000 compounds, about 620 (0.23%) were called active. The source calls these results inconclusive, neither active nor inactive. Calls follow the shape of the dose curve; as a rule, active = well fitted inhibition curve with a large enough effect in the polarisation, with a control signal flat (not every such curve was filed as active); inconclusive = small, poorly fitted or top-dose-only effect, or effect the other way, or a change in a side signal; inactive = no such curve, though single readings can be large or run the other way; the % refers to the polarisation.

The chains behind the UniProt entries cited, without tags or fusion partners.
UniProt O00255, whole entry, looked up: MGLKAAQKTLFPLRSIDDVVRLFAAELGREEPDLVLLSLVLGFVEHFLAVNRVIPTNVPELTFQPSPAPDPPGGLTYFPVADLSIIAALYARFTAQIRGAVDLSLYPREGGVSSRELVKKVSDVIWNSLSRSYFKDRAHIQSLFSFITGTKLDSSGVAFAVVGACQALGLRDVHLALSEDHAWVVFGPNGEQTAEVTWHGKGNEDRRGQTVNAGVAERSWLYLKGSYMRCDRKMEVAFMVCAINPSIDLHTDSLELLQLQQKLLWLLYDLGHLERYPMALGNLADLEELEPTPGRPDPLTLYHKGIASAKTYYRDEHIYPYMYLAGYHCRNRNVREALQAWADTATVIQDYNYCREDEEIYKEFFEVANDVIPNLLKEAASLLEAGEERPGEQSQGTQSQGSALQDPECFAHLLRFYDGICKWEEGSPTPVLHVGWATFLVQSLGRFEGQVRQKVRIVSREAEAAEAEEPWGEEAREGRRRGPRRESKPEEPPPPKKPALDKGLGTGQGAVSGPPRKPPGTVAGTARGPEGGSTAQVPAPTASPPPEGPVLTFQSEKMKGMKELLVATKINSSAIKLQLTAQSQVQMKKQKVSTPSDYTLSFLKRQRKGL

molecular target: Menin (Homo sapiens) (UniProt O00255); assay: qHTS Assay for Inhibitors Targeting the Menin-MLL Interaction in MLL Related Leukemias: Competition With Texas Red Labeled MLL-derived Mutant Peptide; conditions: fluorescence polarization
Potency is read from the fitted curve at half-maximal effect.

Q: With CC1CCN(C(=O)Oc2c(Cl)cc(Cl)c3cccnc23)CC1 as the compound, how does the Potency read?
A: The Potency was inconclusive: 2.82 µM.

Q: Which Potency does the source give for O=[N+]([O-])c1cc([N+](=O)[O-])c(CCNc2ccccc2)c([N+](=O)[O-])c1 here?
A: The Potency was inconclusive: 8.91 µM.

Q: With O=[N+]([O-])c1cc([N+](=O)[O-])c(CCN2CCOCC2)c([N+](=O)[O-])c1 as the compound, how does the Potency read?
A: The Potency was inconclusive: 12.6 µM.

Q: With Nc1cccc2ccc([As](=O)(O)O)cc12 as the compound, how does the Potency read?
A: The Potency was inconclusive: 28.2 µM.

Q: How did the Potency turn out when Cc1ccc(OP(=O)(Nc2ccccn2)Oc2ccc(C)cc2)cc1 was run?
A: The Potency was inconclusive: 6.31 µM.

Q: With O=c1c2cc([N+](=O)[O-])ccc2[nH]c2c([N+](=O)[O-])cc([N+](=O)[O-])cc12 as the compound, how does the Potency read?
A: The Potency was inconclusive: 14.1 µM.

Q: CC(=O)Nc1ccc(Oc2c([N+](=O)[O-])cc([N+](=O)[O-])cc2[N+](=O)[O-])cc1 was tested. Which Potency did it give?
A: Its Potency is inconclusive: 35.5 µM.

Q: For CCOc1ccc(C2=NCC(CBr)S2)cc1 (stereo not drawn), which Potency is on record?
A: Its Potency is inconclusive: 39.8 µM.

Q: Which Potency does the source give for c1nnnn1CCn1cnnn1 here?
A: Its Potency is inconclusive: 31.6 µM.

Q: With O=[N+]([O-])c1ccc(O)c(/C=N/Nc2ccc([N+](=O)[O-])cc2[N+](=O)[O-])c1 as the compound, how does the Potency read?
A: The Potency was inconclusive: 17.8 µM.

Q: For CC1CCC(C(C)C)C(OP(=O)(Nc2ccccn2)c2ccccc2)C1 (stereo not drawn), which Potency is on record?
A: Its Potency is inconclusive: 2.82 µM.

Q: How did the Potency turn out when Cc1ccc(NCCc2c([N+](=O)[O-])cc([N+](=O)[O-])cc2[N+](=O)[O-])cc1 was run?
A: Its Potency is inconclusive: 31.6 µM.

Q: For Nc1cccc2c([As](=O)(O)O)cccc12, which Potency is on record?
A: The Potency was inconclusive: 28.2 µM.

Q: For NC(=O)Nc1ccc([As](=O)(O)O)cc1, which Potency is on record?
A: The Potency was inconclusive: 39.8 µM.

Q: With O=P(Nc1nccs1)(Oc1ccccc1)Oc1ccccc1 as the compound, how does the Potency read?
A: Its Potency is inconclusive: 28.2 µM.

Q: How did the Potency turn out when O=C(O)COc1ccc([As](=O)(O)O)cc1[N+](=O)[O-] was run?
A: The Potency was inconclusive: 28.2 µM.

Q: How did the Potency turn out when O=[N+]([O-])c1cc([N+](=O)[O-])c(-c2ccn[nH]2)s1 was run?
A: The Potency was inconclusive: 31.6 µM.

Q: With O=[N+]([O-])c1ccc(Nc2ccc(Oc3ccc([N+](=O)[O-])cc3[N+](=O)[O-])cc2)c([N+](=O)[O-])c1 as the compound, how does the Potency read?
A: The Potency was inconclusive: 11.2 µM.
